Measurements as given in article PMC10535824, “Tryptophan Substitution in CJ-15,208 (cyclo[Phe-D-Pro-Phe-Trp]) Introduces δ-Opioid Receptor Antagonism, Preventing Antinociceptive Tolerance and Stress-Induced Reinstatement of Extinguished Cocaine-Conditioned Place Preference” (Pharmaceuticals, 2023).

Test system: C57BL/6J mice
Test: acute antinociceptive tolerance (dosing at 0 and 8 h)
Details: i.c.v.
Description: The degree of tolerance was calculated from the shift in ED50 value from the singly to repeatedly treated condition.

Structure (SMILES): CN1CC[C@]23c4c5ccc(O)c4O[C@H]2[C@@H](O)C=C[C@H]3[C@H]1C5 [Morphine, reference compound]
- Fold-Shift, Naïve ED50 vs. Second ED50: 7.70
- rightward shift in the dose–response curve of the second dose: 7.7 fold
